Reference: patent publication US20180016325

Tested on: MP-LAFG-PABC-(piperazinoBOR) LA-104 as antibody conjugate AAC-193

## human cathepsin B
  Percent cleavage pH 5: 100%
  Percent cleavage pH 7.2: 64%
